Results from paper PMC9569839, “Methionine 274 Is Not the Determining Factor for Selective Inhibition of Histone Deacetylase 8 (HDAC8) by L-Shaped Inhibitors” (International Journal of Molecular Sciences, 2022).
Residue numbers refer to the chain shown, from its start.

Key:
HDAC8wt = target: T1, HDAC8wt (Homo sapiens, UniProt Q9BY41); experiment: biochemical; conditions: read-out: kon (rate constant of association)
T1 sequence (Q9BY41 1-377): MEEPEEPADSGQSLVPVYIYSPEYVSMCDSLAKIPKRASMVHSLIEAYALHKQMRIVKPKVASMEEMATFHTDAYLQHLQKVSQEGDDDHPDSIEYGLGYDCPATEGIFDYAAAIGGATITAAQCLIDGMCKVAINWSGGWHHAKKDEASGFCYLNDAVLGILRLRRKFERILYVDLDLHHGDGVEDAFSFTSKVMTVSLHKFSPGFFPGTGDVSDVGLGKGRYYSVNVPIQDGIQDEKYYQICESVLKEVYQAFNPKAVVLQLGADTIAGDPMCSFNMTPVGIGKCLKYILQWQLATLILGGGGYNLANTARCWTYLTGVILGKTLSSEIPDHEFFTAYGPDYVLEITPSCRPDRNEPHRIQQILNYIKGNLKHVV

HDAC8M274A [1] = target: T2, HDAC8M274A (Homo sapiens, UniProt Q9BY41, M274A); experiment: biochemical; conditions: read-out: kon (rate constant of association)
T2 sequence (Q9BY41 1-377 M274A): T1 sequence (Q9BY41 1-377) with M274A

HDAC8M274A [2] = target: T2, HDAC8M274A; experiment: Enzyme activity assay, IC50 determination with Boc-Lys(TFA)-AMC

kon (HDAC8wt) | kon (HDAC8M274A [1]) | SMILES | IC50 (HDAC8M274A [2])
3.9e+06 ± 300000 M⁻¹ s⁻¹ | 1.92e+06 ± 60000 M⁻¹ s⁻¹ | O=C(NO)c1cccc(-c2cn(CSc3ccccc3)nn2)c1 [NCC-149] | –
– | – | O=C(CCCCCCC(=O)Nc1ccccc1)NO [SAHA, suberoylanilide hydroxamic acid] | 11 µM
